The entries are a selection whose mix differs from that of the whole data set. Some of these compounds have results that are not shown, active ones among them. Activity calls are given as the source filed them.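 Rule for the calls: active = inhibition above a per-plate cutoff, the plate's mean sample inhibition plus 3 SD (cut at about 24% in these data); inactive = the rest.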
Experiment: calcium signal blockers in parental CHO-K1 cells – cell-based, Fluo-8 calcium fluorescence, full deck, 1536-well, counter-screen for M1 antagonist project, primary screen (AID 602250);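 note: 0% = DMSO plus EC80 ATP and 100% = DMSO alone without ATP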
Conditions: ATP-induced calcium, Fluo-8 fluorescence, at 3 µM, stronger effect = higher value

Row | Structure (SMILES) | inhibition
1 | COc1cccc(C(=O)NCC2(N3CCCCC3)CCCCC2)c1 | inactive: -13%
2 | COc1ccc(Cl)cc1C(=O)NCC1(N(C)C)CCCCC1 | inactive: -5.88%
3 | O=C(NCC1(N2CCCCC2)CCCCC1)c1cccc(Cl)c1 | inactive: -18.7%
4 | CN(C)C1(CNC(=O)c2ccc(Br)cc2)CCCCC1 | inactive: -3.79%
5 | COc1cc(C(=O)NCC2(N(C)C)CCCCC2)c([N+](=O)[O-])cc1OC | inactive: -19%
6 | COc1ccc(Br)c(C(=O)NCC2(N3CCCCC3)CCCCC2)c1 | inactive: -14.7%
7 | C=C(C)C#CC(O)(C(=O)OC1CCN(C)CC1)c1ccccc1 (stereo unspecified) | inactive: -1.24%
8 | CN(C)c1cccc(C(=O)NCC2(N(C)C)CCCCC2)c1 | inactive: -9.23%
9 | CC(C)Oc1ccc(C(=O)NCC2(N(C)C)CCCCC2)cc1 | inactive: -2.76%
10 | O=C(OCCN1CCCC1)C(O)(c1ccccc1)c1ccccc1 | inactive: -6.59%
11 | O=C(OC1CN2CCC1CC2)C(CO)(c1ccccc1)c1ccccc1 (stereo unspecified) | inactive: 2.74%
12 | CC(C)N1C(=O)CC2(CCN(CCOC(=O)C(O)(c3ccccc3)c3ccccc3)CC2)C1=O | inactive: -11.7%
13 | CCN(CC)CC(C)C(C)OC(=O)C(O)(c1ccccc1)c1ccccc1 (stereo unspecified) | inactive: -13.8%
14 | COc1cc(SC)ccc1C(=O)NCC1(N(C)C)CCCCC1 | inactive: -4.03%
15 | Cc1ccc(C(=O)NCC2(N3CCCCC3)CCCCC2)cc1 | inactive: -17.3%
16 | O=C(NCC1(N2CCCCC2)CCCCC1)c1cc([N+](=O)[O-])ccc1Cl | inactive: -10%
17 | CN1[C@@H]2CC[C@H]1CC(OC(=O)C(O)(c1ccccc1)c1ccccc1)C2 (stereo partly specified) | inactive: -11.1%
18 | C=CCN1CCN(CCOC(=O)C(O)(c2ccccc2)c2ccccc2)CC1 | inactive: -15.5%
19 | O=C(NCC1(N2CCCCC2)CCCCC1)c1cc(F)c(F)cc1Cl | inactive: -1.46%
20 | CCN1CCCC(OC(=O)C2(O)c3ccccc3C=Cc3ccccc32)C1 (stereo unspecified) | inactive: -0.52%
21 | Cc1cc(C(=O)NCC2(N3CCCCC3)CCCCC2)ccc1[N+](=O)[O-] | inactive: 0.01%
22 | O=C(NCC1(N2CCCCC2)CCCCC1)c1cccc(Br)c1 | inactive: -13.5%
23 | COc1ccc(C(=O)NCC2(N(C)C)CCCCC2)cc1 | inactive: 0.53%
24 | Cc1ccccc1C(=O)NCC1(N2CCCCC2)CCCCC1 | inactive: -13.5%
25 | CN(C)c1ccc(C(=O)NCC2(N(C)C)CCCCC2)cc1 | inactive: 3.87%
26 | CN(C)C1CCCC1OC(=O)C(O)(c1ccccc1)c1ccccc1 (stereo unspecified) | inactive: 7.58%

Source: PubChem BioAssay AID602250 (The Scripps Research Institute Molecular Screening Center, 2012)
